# Values quoted from earlier work, collected in paper PMC2748165 (Biochemical pharmacology, 2009).
# Chains of the proteins cited; added tags and fusions are not shown.
# UniProt P08183, whole entry: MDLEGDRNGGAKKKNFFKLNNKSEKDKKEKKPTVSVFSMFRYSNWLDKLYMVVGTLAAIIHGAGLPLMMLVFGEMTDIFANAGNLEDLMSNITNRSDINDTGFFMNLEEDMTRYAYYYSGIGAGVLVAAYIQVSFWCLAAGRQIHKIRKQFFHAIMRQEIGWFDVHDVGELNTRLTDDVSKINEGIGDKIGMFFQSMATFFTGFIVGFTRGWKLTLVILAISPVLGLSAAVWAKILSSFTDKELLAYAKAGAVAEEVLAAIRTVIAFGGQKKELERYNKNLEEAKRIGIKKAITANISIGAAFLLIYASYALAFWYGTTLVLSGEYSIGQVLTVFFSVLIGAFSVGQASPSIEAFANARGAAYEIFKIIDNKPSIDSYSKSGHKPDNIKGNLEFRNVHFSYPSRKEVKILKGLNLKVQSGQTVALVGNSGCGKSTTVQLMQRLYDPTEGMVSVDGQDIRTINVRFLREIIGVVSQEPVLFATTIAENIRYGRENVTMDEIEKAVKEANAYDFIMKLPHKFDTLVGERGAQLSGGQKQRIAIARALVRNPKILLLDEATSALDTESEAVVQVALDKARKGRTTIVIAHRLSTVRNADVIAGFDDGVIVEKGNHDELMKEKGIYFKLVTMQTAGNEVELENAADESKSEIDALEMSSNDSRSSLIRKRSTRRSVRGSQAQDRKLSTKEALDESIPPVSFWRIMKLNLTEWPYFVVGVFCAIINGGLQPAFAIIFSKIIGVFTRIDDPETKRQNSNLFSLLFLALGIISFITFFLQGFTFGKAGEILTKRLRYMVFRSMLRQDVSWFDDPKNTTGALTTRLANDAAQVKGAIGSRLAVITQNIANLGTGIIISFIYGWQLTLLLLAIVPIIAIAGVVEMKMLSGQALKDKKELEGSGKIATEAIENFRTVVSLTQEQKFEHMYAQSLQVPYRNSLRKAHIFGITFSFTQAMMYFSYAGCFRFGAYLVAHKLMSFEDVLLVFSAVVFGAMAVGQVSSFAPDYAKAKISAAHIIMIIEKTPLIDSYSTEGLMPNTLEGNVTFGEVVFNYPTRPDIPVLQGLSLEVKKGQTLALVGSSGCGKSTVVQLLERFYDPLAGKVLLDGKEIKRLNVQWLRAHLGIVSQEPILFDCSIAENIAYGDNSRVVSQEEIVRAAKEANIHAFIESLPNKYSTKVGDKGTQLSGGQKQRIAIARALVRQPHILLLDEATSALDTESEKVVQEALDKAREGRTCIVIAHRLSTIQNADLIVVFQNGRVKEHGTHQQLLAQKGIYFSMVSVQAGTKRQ
# Columns and labels:
# [1] = biological target: P-gp (Homo sapiens, UniProt P08183); settings: human cDNA-P-gp membrane preparations; cited from earlier work
# [2] = test system: placental P-gp; settings: P-gp inhibitor (GF120918) added to perfusion medium; cited from earlier work
# [3] = dual perfusion of human placental lobule; cited from earlier work
substance,measurement,setting,value
buprenorphine,interaction with P-gp as determined by stimulation of ATP hydrolysis,[1],interact/bind to P-gp
same,effect of P-gp inhibitor on concentration in / transfer to the fetal circuit,[2],but not buprenorphine
same,rate of transfer from the maternal to fetal circuit,[3],11.6 ± 2.5%
